From patent publication US9706755B2, “Controlled odor mimic permeation system” (dated 2017)

Assays:
[1] = tested on: explosives detection canines; experiment: First field test of gauze mimic aids, COMPS kits (Table 94); settings: 100 μl at 10% w/v Acetonitrile on Gauze in 2 mil LDPE, Electrical Box
[2] = tested on: trained and certified explosives detection canines; experiment: Canine field trials, active odor determination (odor line-up of hide boxes)
[3] = tested on: explosives detection canines; experiment: Overall / individual canine performance (alerts plus interests over all hides; real explosives, odor chemicals, NESTT silica and petrolatum aids; Tables 69-72); settings: for total number of alerts or interest / total number of hides: interest reported as alert; for overall canine population response to odor chemical (alert/interest): Table 70, all field tests pooled, canines 120, 140, 141 discounted; for Total, alerts or interest / hides / Total, alerts or interest as percent of hides: all canines 101-144; for Adjusted Total, alerts or interest / hides / Adjusted Total, alerts or interest as percent of hides: removing canines 120, 140 & 141
[4] = Table 63, 5.0 mg ethyl centralite, tablets with total 10.0 mg trinitroglycerin
[5] = Dog Number 140 (4/6 false alerts, discounted from adjusted totals)
[6] = Dog Number 141 (4/6 false alerts, discounted from adjusted totals)
[7] = Table 58, 0.5 μl in 2.0 mil LDPE
[8] = Table 60, 25 μl in 2.0 mil LDPE
[9] = Table 52, 1.0 g sealed inside LDPE
[10] = Table 59, 10.0 μl in 2.0 mil LDPE

## Ethyl Centralite
[1]
  Interest (dog numbers): 142
  No Alert (dog numbers): 133 ,
[2]; [4]
  alerts (canines alerting / canines tested): 2/12
  interests (canines showing interest / canines tested): 1/12
[2]; Table 63, Electrical Box, 50 μl at 10% w/v Acetonitrile on Gauze in 2.0 mil LDPE, 12 canines
  % Alert: 16.7%
[2]; Table 64, 10.0 mg
  alerts (canines alerting / canines tested): 0/6
[2]; Table 64, 1.0 g
  alerts (canines alerting / canines tested): 0/6
[3]; Dog Number 101
  total number of alerts or interest / total number of hides: 0/1
[3]; Dog Number 103
  total number of alerts or interest / total number of hides: 0/1
[3]; Dog Number 106
  total number of alerts or interest / total number of hides: 0/1
[3]; Dog Number 108
  total number of alerts or interest / total number of hides: 1/3
[3]; Dog Number 109
  total number of alerts or interest / total number of hides: 0/5
[3]; Dog Number 110
  total number of alerts or interest / total number of hides: 0/2
[3]; Dog Number 111
  total number of alerts or interest / total number of hides: 0/1
[3]; Dog Number 112
  total number of alerts or interest / total number of hides: 1/2
[3]; Dog Number 113
  total number of alerts or interest / total number of hides: 0/1
[3]; Dog Number 115
  total number of alerts or interest / total number of hides: 0/1
[3]; Dog Number 116
  total number of alerts or interest / total number of hides: 0/1
[3]; Dog Number 117
  total number of alerts or interest / total number of hides: 1/2
[3]; Dog Number 118
  total number of alerts or interest / total number of hides: 0/3
[3]; Dog Number 119
  total number of alerts or interest / total number of hides: 0/2
[3]; Dog Number 121
  total number of alerts or interest / total number of hides: 0/1
[3]; Dog Number 124
  total number of alerts or interest / total number of hides: 0/1
[3]; Dog Number 126
  total number of alerts or interest / total number of hides: 0/3
[3]; Dog Number 127
  total number of alerts or interest / total number of hides: 0/3
[3]; Dog Number 128
  total number of alerts or interest / total number of hides: 0/1
[3]; Dog Number 129
  total number of alerts or interest / total number of hides: 0/1
[3]; Dog Number 130
  total number of alerts or interest / total number of hides: 0/1
[3]; Dog Number 131
  total number of alerts or interest / total number of hides: 0/1
[3]; Dog Number 132
  total number of alerts or interest / total number of hides: 0/1
[3]; Dog Number 133
  total number of alerts or interest / total number of hides: 0/1
[3]; [5]
  total number of alerts or interest / total number of hides: 1/1
[3]; [6]
  total number of alerts or interest / total number of hides: 1/1
[3]; Dog Number 142
  total number of alerts or interest / total number of hides: 1/1
[3]; Dog Number 143
  total number of alerts or interest / total number of hides: 1/1
[3]; Dog Number 144
  total number of alerts or interest / total number of hides: 1/1
[3]
  overall canine population response to odor chemical (alert/interest): 14.0%
  Total, alerts or interest / hides: 8/45
  Total, alerts or interest as percent of hides: 17.8%
  Adjusted Total, alerts or interest / hides: 6/43
  Adjusted Total, alerts or interest as percent of hides: 14.0%

## 2-Nitrodiphenylamine
[1]
  Interest (dog numbers): 112
[2]; two field tests, 5.0 mg and 10.0 mg
  response from the canines: neither test resulted in any response
[3]; Dog Number 101
  total number of alerts or interest / total number of hides: 0/1
[3]; Dog Number 106
  total number of alerts or interest / total number of hides: 0/1
[3]; Dog Number 108
  total number of alerts or interest / total number of hides: 0/2
[3]; Dog Number 109
  total number of alerts or interest / total number of hides: 0/4
[3]; Dog Number 110
  total number of alerts or interest / total number of hides: 0/2
[3]; Dog Number 112
  total number of alerts or interest / total number of hides: 0/2
[3]; Dog Number 113
  total number of alerts or interest / total number of hides: 0/1
[3]; Dog Number 115
  total number of alerts or interest / total number of hides: 0/1
[3]; Dog Number 117
  total number of alerts or interest / total number of hides: 0/2
[3]; Dog Number 118
  total number of alerts or interest / total number of hides: 0/2
[3]; Dog Number 119
  total number of alerts or interest / total number of hides: 0/1
[3]; Dog Number 126
  total number of alerts or interest / total number of hides: 0/2
[3]; Dog Number 127
  total number of alerts or interest / total number of hides: 0/2
[3]; Dog Number 128
  total number of alerts or interest / total number of hides: 0/1
[3]; Dog Number 129
  total number of alerts or interest / total number of hides: 0/1
[3]; Dog Number 130
  total number of alerts or interest / total number of hides: 0/1
[3]; Dog Number 131
  total number of alerts or interest / total number of hides: 0/1
[3]; Dog Number 132
  total number of alerts or interest / total number of hides: 0/1
[3]; Dog Number 133
  total number of alerts or interest / total number of hides: 0/1
[3]; [5]
  total number of alerts or interest / total number of hides: 1/1
[3]; [6]
  total number of alerts or interest / total number of hides: 1/1
[3]; Dog Number 142
  total number of alerts or interest / total number of hides: 0/1
[3]; Dog Number 143
  total number of alerts or interest / total number of hides: 0/1
[3]; Dog Number 144
  total number of alerts or interest / total number of hides: 0/1
[3]
  overall canine population response to odor chemical (alert/interest): 0.0%
  Total, alerts or interest / hides: 2/24
  Total, alerts or interest as percent of hides: 8.33%
  Adjusted Total, alerts or interest / hides: 0/20
  Adjusted Total, alerts or interest as percent of hides: 0.0%

## Cc1ccccc1[N+](=O)[O-]
[2]; Table 54, 5.0 mg
  alerts (canines alerting / canines tested): 1/8
  interests (canines showing interest / canines tested): 2/8
[2]; Table 54, Quart Can, 50 μl at 10% w/v Acetonitrile on Cotton, 9 canines
  % Alert: 11.1%
[2]; [7]
  alerts (canines alerting / canines tested): 2/10
[2]; [8]
  alerts (canines alerting / canines tested): 0/12
  interests (canines showing interest / canines tested): 1/12
[3]; Dog Number 101
  total number of alerts or interest / total number of hides: 1/1
[3]; Dog Number 103
  total number of alerts or interest / total number of hides: 1/1
[3]; Dog Number 106
  total number of alerts or interest / total number of hides: 0/1
[3]; Dog Number 107
  total number of alerts or interest / total number of hides: 0/1
[3]; Dog Number 108
  total number of alerts or interest / total number of hides: 1/2
[3]; Dog Number 109
  total number of alerts or interest / total number of hides: 1/4
[3]; Dog Number 110
  total number of alerts or interest / total number of hides: 0/1
[3]; Dog Number 111
  total number of alerts or interest / total number of hides: 0/1
[3]; Dog Number 113
  total number of alerts or interest / total number of hides: 1/3
[3]; Dog Number 115
  total number of alerts or interest / total number of hides: 0/1
[3]; Dog Number 116
  total number of alerts or interest / total number of hides: 1/2
[3]; Dog Number 117
  total number of alerts or interest / total number of hides: 0/1
[3]; Dog Number 118
  total number of alerts or interest / total number of hides: 0/2
[3]; Dog Number 119
  total number of alerts or interest / total number of hides: 1/3
[3]; Dog Number 121
  total number of alerts or interest / total number of hides: 0/1
[3]; Dog Number 124
  total number of alerts or interest / total number of hides: 0/1
[3]; Dog Number 125
  total number of alerts or interest / total number of hides: 0/1
[3]; Dog Number 126
  total number of alerts or interest / total number of hides: 0/2
[3]; Dog Number 127
  total number of alerts or interest / total number of hides: 0/1
[3]; Dog Number 128
  total number of alerts or interest / total number of hides: 0/1
[3]; Dog Number 129
  total number of alerts or interest / total number of hides: 0/1
[3]
  overall canine population response to odor chemical (alert/interest): 21.9%
  Total, alerts or interest / hides: 7/32
  Total, alerts or interest as percent of hides: 21.9%
  Adjusted Total, alerts or interest / hides: 7/32
  Adjusted Total, alerts or interest as percent of hides: 21.9%

## O=C1CCCCC1
[2]; [9]
  alerts (canines alerting / canines tested): 2/6
  interests (canines showing interest / canines tested): 2/6
[2]; [7]
  alerts (canines alerting / canines tested): 0/10
[2]; [10]
  alerts (canines alerting / canines tested): 0/10
  interests (canines showing interest / canines tested): one canine did give an interest
[2]; [8]
  alerts (canines alerting / canines tested): 1/12
  interests (canines showing interest / canines tested): 2/12
[3]; Dog Number 103
  total number of alerts or interest / total number of hides: 0/1
[3]; Dog Number 106
  total number of alerts or interest / total number of hides: 2/2
[3]; Dog Number 107
  total number of alerts or interest / total number of hides: 0/1
[3]; Dog Number 108
  total number of alerts or interest / total number of hides: 0/2
[3]; Dog Number 109
  total number of alerts or interest / total number of hides: 0/3
[3]; Dog Number 110
  total number of alerts or interest / total number of hides: 0/1
[3]; Dog Number 111
  total number of alerts or interest / total number of hides: 0/1
[3]; Dog Number 112
  total number of alerts or interest / total number of hides: 1/3
[3]; Dog Number 113
  total number of alerts or interest / total number of hides: 1/3
[3]; Dog Number 114
  total number of alerts or interest / total number of hides: 0/1
[3]; Dog Number 115
  total number of alerts or interest / total number of hides: 2/3
[3]; Dog Number 116
  total number of alerts or interest / total number of hides: 2/4
[3]; Dog Number 118
  total number of alerts or interest / total number of hides: 0/1
[3]; Dog Number 119
  total number of alerts or interest / total number of hides: 1/3
[3]; Dog Number 120 (20/28 false alerts, discounted from adjusted totals)
  total number of alerts or interest / total number of hides: 1/1
[3]; Dog Number 124
  total number of alerts or interest / total number of hides: 0/1
[3]; Dog Number 125
  total number of alerts or interest / total number of hides: 0/1
[3]; Dog Number 126
  total number of alerts or interest / total number of hides: 1/2
[3]; Dog Number 127
  total number of alerts or interest / total number of hides: 0/2
[3]; Dog Number 128
  total number of alerts or interest / total number of hides: 0/1
[3]; Dog Number 129
  total number of alerts or interest / total number of hides: 1/1
[3]; Dog Number 130
  total number of alerts or interest / total number of hides: 0/1
[3]; Dog Number 131
  total number of alerts or interest / total number of hides: 0/1
[3]; Dog Number 132
  total number of alerts or interest / total number of hides: 0/1
[3]
  overall canine population response to odor chemical (alert/interest): 27.5%
  Total, alerts or interest / hides: 12/41
  Total, alerts or interest as percent of hides: 29.3%
  Adjusted Total, alerts or interest / hides: 11/40
  Adjusted Total, alerts or interest as percent of hides: 27.5%
